Where two headings read alike, the source gives them in different places.
T1: mGLP1R (mouse (read from the printed label …, UniProt O35659 22-463))
T1 sequence (looked up): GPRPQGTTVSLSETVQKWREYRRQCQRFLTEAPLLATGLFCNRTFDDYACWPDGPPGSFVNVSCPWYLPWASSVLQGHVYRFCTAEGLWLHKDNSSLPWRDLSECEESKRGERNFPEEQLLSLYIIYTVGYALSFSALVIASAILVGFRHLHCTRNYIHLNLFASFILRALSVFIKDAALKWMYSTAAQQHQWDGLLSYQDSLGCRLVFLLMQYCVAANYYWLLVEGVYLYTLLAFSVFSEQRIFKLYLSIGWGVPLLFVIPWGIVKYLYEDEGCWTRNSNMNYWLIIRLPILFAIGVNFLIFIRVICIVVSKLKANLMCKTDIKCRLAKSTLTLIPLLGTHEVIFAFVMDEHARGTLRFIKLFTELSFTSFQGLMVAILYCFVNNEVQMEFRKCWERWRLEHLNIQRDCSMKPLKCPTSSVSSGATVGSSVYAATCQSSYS

B1: Oxyntomodulin (OXM) (peptide)
peptide: HSQGTFTSDYSKYLDSRRAQDFVQWLMNTKRNRNNIA

What was measured:
Assay in all cases: cell-based or functional assay
[1] = target: mGCGR (mouse (read from the printed label 'mGCGR'; not spelled out)) (UniProt Q61606)
[2] = target: mGLP1R (mouse (read from the printed label 'mGLP1R'; not spelled out)) (UniProt O35659)
[3] = target: mGLP1R (mouse (read from the printed label 'mGLP1R'; not spelled out)) (UniProt O35659); remark: listed apart in the source
[4] = target: mGLP1R (mouse (read from the printed label 'mGLP1R'; not spelled out)) (UniProt O35659); remark: listed apart in the source
mGLP1R [5] = target: T1, mGLP1R
mGCGR [6] = target: T2, mGCGR (mouse (read from the printed label …, UniProt Q61606 27-485))
mGLP1R [7] = target: T1, mGLP1R; remark: listed apart in the source
mGCGR [8] = target: T2, mGCGR; remark: listed apart in the source
mGLP1R [9] = target: T1, mGLP1R; remark: listed apart in the source
mGCGR [10] = target: T2, mGCGR; remark: listed apart in the source

Molecule	EC50 (cAMP, HEK 293 cells transfected with GCGR) [1]	EC50 (cAMP, HEK 293 cells transfected with GLP-1R) [2]	EC50 (cAMP, HEK 293 cells transfected with GLP-1R) [3]	EC50 (cAMP, HEK 293 cells transfected with GLP-1R) [4]	EC50 (cAMP, HEK 293 cells transfected with GLP-1R) (mGLP1R [5])	EC50 (cAMP, HEK 293 cells transfected with GCGR) (mGCGR [6])	EC50 (cAMP, HEK 293 cells transfected with GLP-1R) (mGLP1R [7])	EC50 (cAMP, HEK 293 cells transfected with GCGR) (mGCGR [8])	EC50 (cAMP, HEK 293 cells transfected with GLP-1R) (mGLP1R [9])	EC50 (cAMP, HEK 293 cells transfected with GCGR) (mGCGR [10])
Exenatide (from UniProt P26349 48-86) (peptide)	> 1000 pM	5.8 pM	6.2 pM	6.5 pM	–	–	–	–	–	–
B1	–	–	–	–	15.7 pM	6.1 pM	22.6 pM	7.3 pM	17.6 pM	6.7 pM

From patent US20220177537A1 (CHINA PHARMACEUTICAL UNIVERSITY, published 2022)
